IC50 data for five compounds are collected here from US9815819B2, “Complement pathway modulators and uses thereof” (priority 2012, dated 2017).

By UniProt entry, the sequences of proteins in these tests, tags left out. Residues count along the entry.
UniProt P00746, 26-253: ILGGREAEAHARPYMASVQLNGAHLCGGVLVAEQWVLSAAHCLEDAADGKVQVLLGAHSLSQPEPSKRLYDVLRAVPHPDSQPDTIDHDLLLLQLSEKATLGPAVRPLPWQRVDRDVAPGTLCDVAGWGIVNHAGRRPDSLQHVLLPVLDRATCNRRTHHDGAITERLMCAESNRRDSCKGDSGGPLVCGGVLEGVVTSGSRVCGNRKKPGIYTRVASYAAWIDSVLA

pIC50: −log10 of the molar value.

A word on the pIC50: it is the IC50 on a negative log10 scale, so that one unit is a factor of ten.

In the experiment the target is Recombinant human factor D (Homo sapiens (Human), UniProt P00746). As to the kind of experiment: Human Complement Factor D Assay: Method 1. The experiment is classed as biochemical. The conditions noted are these: Factor D inhibition, Method 1: 10 nM factor D, 1 hour incubation with compound at room temperature, substrate Z-Lys-thiobenzyl, fluorescence readout.
With `NC(=O)c1nn(CC(=O)N2[C@@H]3C[C@@H]3C[C@H]2C(=O)NC2CC[C@@H](c3ccccc3)C2)c2cnccc12` (single isomer, unassigned) [Example 85], the pIC50 is 5.91.
To `NC(=O)c1nn(CC(=O)N2[C@@H]3C[C@@H]3C[C@H]2C(=O)NC2CC[C@@H](c3ccccc3)C2)c2cnccc12` (single isomer, unassigned) [Example 86] belongs 6.19; to `NC(=O)c1nn(CC(=O)N2[C@@H]3C[C@@H]3C[C@H]2C(=O)NC2CC[C@H](c3ccccc3)C2)c2cnccc12` (single isomer, unassigned) [Example 83], 5.89.
To `NC(=O)c1nn(CC(=O)N2[C@@H]3C[C@@H]3C[C@H]2C(=O)NC2CC[C@H](c3ccccc3)C2)c2cnccc12` (single isomer, unassigned) [Example 84] belongs 5.84; to `NC(=O)c1nn(CC(=O)N2[C@@H]3C[C@@H]3C[C@H]2C(=O)NC2CCCC(c3ccccc3)C2)c2cnccc12` (single isomer, unassigned) [Example 82], 6.64.
